This test concerns the target T1, Kinesin-like protein KIF11 (Homo sapiens, UniProt P52732).
T1 sequence (P52732 whole entry): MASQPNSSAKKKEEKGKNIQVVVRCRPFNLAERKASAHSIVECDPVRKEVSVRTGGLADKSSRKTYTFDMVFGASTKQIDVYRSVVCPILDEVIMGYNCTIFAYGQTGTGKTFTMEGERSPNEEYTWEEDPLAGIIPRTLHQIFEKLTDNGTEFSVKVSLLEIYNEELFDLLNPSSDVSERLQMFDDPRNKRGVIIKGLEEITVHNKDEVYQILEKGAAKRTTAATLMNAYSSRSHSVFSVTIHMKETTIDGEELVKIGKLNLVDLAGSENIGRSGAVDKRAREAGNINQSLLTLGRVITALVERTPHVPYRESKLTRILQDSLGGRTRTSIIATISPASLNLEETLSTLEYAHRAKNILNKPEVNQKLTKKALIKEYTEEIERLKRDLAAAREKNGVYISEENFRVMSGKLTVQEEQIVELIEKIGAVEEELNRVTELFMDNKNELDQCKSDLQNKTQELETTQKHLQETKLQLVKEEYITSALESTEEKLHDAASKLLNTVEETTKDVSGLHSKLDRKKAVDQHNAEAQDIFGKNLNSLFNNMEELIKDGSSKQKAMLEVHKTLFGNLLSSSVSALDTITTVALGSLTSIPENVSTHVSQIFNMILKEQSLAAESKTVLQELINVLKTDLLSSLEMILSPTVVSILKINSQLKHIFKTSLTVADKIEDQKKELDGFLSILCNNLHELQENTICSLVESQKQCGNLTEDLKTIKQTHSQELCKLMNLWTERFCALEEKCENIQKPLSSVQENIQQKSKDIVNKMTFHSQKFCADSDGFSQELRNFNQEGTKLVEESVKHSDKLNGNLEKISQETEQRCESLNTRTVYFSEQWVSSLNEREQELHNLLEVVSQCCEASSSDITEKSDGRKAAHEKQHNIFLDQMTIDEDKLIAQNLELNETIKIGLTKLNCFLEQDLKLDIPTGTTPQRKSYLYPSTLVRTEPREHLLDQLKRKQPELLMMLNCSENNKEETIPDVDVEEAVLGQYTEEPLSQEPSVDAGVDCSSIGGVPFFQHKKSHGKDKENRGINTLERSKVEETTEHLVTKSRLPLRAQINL
Nature of the test: Inhibition of human kinesin Eg5.

Usually IC50 stands for the midpoint of a concentration-inhibition curve. Higher therefore signals weaker potency in that assay. Consider `O=C1CCCC2=C1[C@H](c1cccc(O)c1)NC(=S)N2` [(S)-ENASTRON], for which it took 2 µM to reach half-maximal inhibition (IC50).
